Values quoted from earlier work, collected in US7888385B2, “Airway alkalinization as therapy for airway diseases” (priority 2002, dated 2011).

Conditions: cited from earlier work

With “3-(Cyclohexamino)-1-propanesulphonic acid” as the substance, how does the pKa read?
Its pKa is 10.5.
